Test results reported in US6660768B2, “Parasiticidal compositions and methods of use” (Schering-Plough Animal Health Corporation, priority 2001, dated 2003).

Columns and labels:
[1] = Example 3C: solubility of 30% permethrin in d-limonene/propylene glycol monomethyl ether mixtures at -15° C.; type: physicochemical; details: initial 30% permethrin
Protocol: A third study was initiated to determine if there would be increased solubility of lower concentrations of permethrin in the solvent mixtures.
The temperature was regulated to −15° C. The solutions were placed in the bath and allowed to crystallize and reach equilibrium. The supernatant solution was sampled and analyzed to determine the concentration of permethrin and isomer ratio.

[2] = Example 3A: relative solubility of permethrin in neat solvents, seeded solutions in cold bath, supernatant assayed
Protocol: These solutions were poured into 100 mL tubes with screw top caps. These tubes were placed in the cold water bath and allowed to come to equilibrium at the temperature of the bath. […] The seeded preparations were then thoroughly shaken, replaced in the bath and allowed to remain in the bath for a 24 hour period. The preparations were then examined for crystallization, then again thoroughly agitated and replaced in the bath for an additional time period. Samples of the supernatant were removed after additional crystallization had occurred.
After 24 hours the tubes were examined for the relative amount of crystallization that may have occurred in each of the solutions. Where crystallization had occurred, samples of the supernatant were pulled from the vials and the temperature of the bath was lowered to 15° C.
Samples were again taken for assay from the solutions of hexylene glycol and methyl Carbitol® (diethylene glycol monomethyl ether).

[3] = Dipropylene Glycol Monomethyl Ether, 15° C.
[4] = Propylene Glycol Monomethyl Ether, 15° C.

SMILES: CC1(C)C(C=C(Cl)Cl)C1C(=O)OCc1cccc(Oc2ccccc2)c1 (stereo not drawn) [permethrin]
- Isomer Ratio Trans/Cis ([1]; 0% d-limonene in formula): 2.83
- Isomer Ratio Trans/Cis ([1]; 20% d-limonene in formula): 2.33
- Isomer Ratio Trans/Cis ([1]; 33% d-limonene in formula): 2.05
- Isomer Ratio Trans/Cis ([1]; 50% d-limonene in formula): 1.75
- Isomer Ratio Trans/Cis ([1]; 67% d-limonene in formula): 1.66
- Isomer Ratio Trans/Cis ([1]; 100% d-limonene in formula): 2.05
- Comments (crystallization) ([2]; Diethylene Glycol Monomethyl Ether, 15° C.): 15 °C it became solid. The
- Trans/Cis Ratio ([2]; Diethylene Glycol Monomethyl Ether, 17.5° C.): 1.59
- Trans/Cis Ratio ([2]; Diethylene Glycol Monomethyl Ether, 20° C.): 1.40
- Trans/Cis Ratio ([2]; Diethylene Glycol Monomethyl Ether, 25° C.): 1.39
- Comments (crystallization) ([2]; Diethylene Glycol Monomethyl Ether, 25° C., 70% permethrin): No crystallization occurred at
- Comments (crystallization) ([2]; Diethylene Glycol Monomethyl Ether, 25° C., 75% permethrin, after second addition of permethrin crystals): at 25 °C Crystals remained in the
- Trans/Cis Ratio ([2]; Diethylene Glycol Monomethyl Ether, Initial): 1.42
- Comments (crystallization) ([2]; Diethylene Glycol Monomethyl Ether, crystallization at 20° C.): The solution showed quite a bit of
- Comments (crystallization) ([2]; Diethylene Glycol Monomethyl Ether, held at 17.5° C. for 24 hours): product was mostly solid. No
- Comments (crystallization) [2, 3]: The product became solid at
- Trans/Cis Ratio [2, 3]: 1.46
- Trans/Cis Ratio ([2]; Dipropylene Glycol Monomethyl Ether, 20° C.): 1.38
- Trans/Cis Ratio ([2]; Dipropylene Glycol Monomethyl Ether, 25° C.): 1.38
- Comments (crystallization) ([2]; Dipropylene Glycol Monomethyl Ether, 25° C., 70% permethrin): No crystallization occurred at
- Comments (crystallization) ([2]; Dipropylene Glycol Monomethyl Ether, 25° C., 75% permethrin, after second addition of permethrin crystals): at 25 °C Crystals remained in the
- Trans/Cis Ratio ([2]; Dipropylene Glycol Monomethyl Ether, Initial): 1.39
- Comments (crystallization) ([2]; Hexylene Glycol, 15° C.): product was solid at 15 °C
- Comments (crystallization) ([2]; Hexylene Glycol, 17.5° C.): mostly solid at 17.5 °C The
- Trans/Cis Ratio ([2]; Hexylene Glycol, 17.5° C.): 1.87
- Comments (crystallization) ([2]; Hexylene Glycol, 20°, solution completely): solidified at 20°. Samples were
- Trans/Cis Ratio ([2]; Hexylene Glycol, 25° C.): 1.39
- Comments (crystallization) ([2]; Hexylene Glycol, 25° C., 70% permethrin): No crystallization occurred at
- Comments (crystallization) ([2]; Hexylene Glycol, 25°, 75% permethrin, after second addition of permethrin crystals): at 25 °C Crystals remained in the
- Trans/Cis Ratio ([2]; Hexylene Glycol, Initial): 1.39
- Comments (crystallization) [2, 4]: product was mostly solid at 15° C.,
- Trans/Cis Ratio [2, 4]: 1.39
- Trans/Cis Ratio ([2]; Propylene Glycol Monomethyl Ether, 20° C.): 1.41
- Trans/Cis Ratio ([2]; Propylene Glycol Monomethyl Ether, 25° C.): 1.38
- Comments (crystallization) ([2]; Propylene Glycol Monomethyl Ether, 25° C., 70% permethrin): No crystallization occurred at
- Trans/Cis Ratio ([2]; Propylene Glycol Monomethyl Ether, Initial): 1.40
- Comments (crystallization): crystals ([2]; Propylene Glycol Monomethyl Ether, the lower temperature (20° C.), 75% permethrin, seeded): remained in the solution. The
- Comments (crystallization) ([2]; d-limonene, 15° C., 75% permethrin, seeded): crystals remained in the solution.
- Trans/Cis Ratio ([2]; d-limonene, 20° C.): 1.38
- Trans/Cis Ratio ([2]; d-limonene, 25° C.): 1.39
- Comments (crystallization) ([2]; d-limonene, 25° C., 70% permethrin): No crystallization occurred at
- Trans/Cis Ratio ([2]; d-limonene, Initial): 1.38
